Experimental data taken from patent US8815951B2, “Inhibitors of epoxide hydrolases for the treatment of inflammation” (The Regents of the University of California, priority 1996, dated 2014).

By UniProt entry, the sequences of proteins in these tests, tags left out. Where a name states a change or a piece, a line headed by the entry shows the natural chain unless it says otherwise.
UniProt P80299: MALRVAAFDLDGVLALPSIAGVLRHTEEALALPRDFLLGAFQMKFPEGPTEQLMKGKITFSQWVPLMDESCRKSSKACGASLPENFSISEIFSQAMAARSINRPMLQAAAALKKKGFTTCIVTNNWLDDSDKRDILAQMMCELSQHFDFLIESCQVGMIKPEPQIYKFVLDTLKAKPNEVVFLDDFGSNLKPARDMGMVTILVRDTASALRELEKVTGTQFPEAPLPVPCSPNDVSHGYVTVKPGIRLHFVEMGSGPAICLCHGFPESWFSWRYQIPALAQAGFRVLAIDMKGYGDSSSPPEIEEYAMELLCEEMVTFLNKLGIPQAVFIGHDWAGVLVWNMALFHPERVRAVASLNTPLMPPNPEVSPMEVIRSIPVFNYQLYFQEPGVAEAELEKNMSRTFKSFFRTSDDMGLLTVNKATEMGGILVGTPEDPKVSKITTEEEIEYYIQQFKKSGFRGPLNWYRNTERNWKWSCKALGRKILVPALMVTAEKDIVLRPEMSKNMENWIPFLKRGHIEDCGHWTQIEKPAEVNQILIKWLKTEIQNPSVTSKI

Columns and labels:
[1] = tested on: 14,15-EET hydrolysis in vivo (sEH), SHR; assay: Urinary DHET and EET excretion in SHR (GC-MS); parameters: species or system rat; settings: DCU daily for 3 days, FIG. 4B
[2] = biological target: EET hydrolysis in SHR renal S9 fractions (sEH) (Rattus norvegicus, UniProt P80299)
mEH = settings: previous studies, Morisseau et al. 1999; cited from earlier work

**Q.** With `O=C(NC1CCCCC1)NC1CCCCC1` [DCU, N,N′-dicyclohexylurea] as the compound, how does the “inhibition of 14,15-EET hydrolysis in vivo” value [1] read?
**A.** Its value is “potent inhibitor of 14,15-EET hydrolysis in vivo”.

**Q.** And the “inhibition of EET hydrolysis in vitro” value ([2]; FIG. 4A)?
**A.** The value was “potent and selective inhibitor of EET hydrolysis in vitro”.

**Q.** What about the IC50 ([2]; read-out: IC50 inhibition of 8,9-EET hydrolysis, 50 μM EET) of the same compound?
**A.** The IC50 was 86 ± 14 nM.

**Q.** And the IC50 ([2]; read-out: IC50 inhibition of 11,12-EET hydrolysis, 50 μM EET)?
**A.** Its IC50 is 540 ± 80 nM.

**Q.** And the IC50 ([2]; read-out: IC50 inhibition of 14,15-EET hydrolysis, 50 μM EET)?
**A.** Its IC50 is 450 ± 160 nM.

**Q.** What about the “inhibition of mEH” value (mEH) of the same compound?
**A.** The value was “does not inhibit”.

Where two headings read alike, the source gives them in different places.
